Test results: patent publication US20250145687A1, “MODIFIED LIGAND-GATED ION CHANNELS AND METHODS OF USE” (Howard Hughes Medical Institute, priority 2022, published 2025)
Where two headings read alike, the source gives them in different places.

Sequences of proteins named here, by UniProt entry; tags and fusion partners are left off. A change or cut given only in a name is not applied to a line headed by its entry. A line that says so, or that is headed by a name, gives the form on record, which may keep a tag or linker. Residues count along the entry.
UniProt P36544, 23-229 with tags or gaps L131G/M226I/Q139L/T225I/Y217F limits assumed: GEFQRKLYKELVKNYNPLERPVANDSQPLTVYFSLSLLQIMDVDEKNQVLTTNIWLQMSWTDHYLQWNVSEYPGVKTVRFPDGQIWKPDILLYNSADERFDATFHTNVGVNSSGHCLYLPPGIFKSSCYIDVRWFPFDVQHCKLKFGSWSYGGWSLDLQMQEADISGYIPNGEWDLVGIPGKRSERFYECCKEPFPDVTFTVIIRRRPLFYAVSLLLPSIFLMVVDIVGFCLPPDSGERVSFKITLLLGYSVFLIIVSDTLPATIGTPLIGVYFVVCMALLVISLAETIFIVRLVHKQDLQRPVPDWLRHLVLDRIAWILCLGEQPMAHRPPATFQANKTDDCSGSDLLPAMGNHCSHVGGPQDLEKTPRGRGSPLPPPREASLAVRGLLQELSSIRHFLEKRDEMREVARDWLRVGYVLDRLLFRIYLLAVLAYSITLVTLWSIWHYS
UniProt P36544, 23-229 with tags or gaps L131G/M226I/Q139L/T225I/W171F limits assumed: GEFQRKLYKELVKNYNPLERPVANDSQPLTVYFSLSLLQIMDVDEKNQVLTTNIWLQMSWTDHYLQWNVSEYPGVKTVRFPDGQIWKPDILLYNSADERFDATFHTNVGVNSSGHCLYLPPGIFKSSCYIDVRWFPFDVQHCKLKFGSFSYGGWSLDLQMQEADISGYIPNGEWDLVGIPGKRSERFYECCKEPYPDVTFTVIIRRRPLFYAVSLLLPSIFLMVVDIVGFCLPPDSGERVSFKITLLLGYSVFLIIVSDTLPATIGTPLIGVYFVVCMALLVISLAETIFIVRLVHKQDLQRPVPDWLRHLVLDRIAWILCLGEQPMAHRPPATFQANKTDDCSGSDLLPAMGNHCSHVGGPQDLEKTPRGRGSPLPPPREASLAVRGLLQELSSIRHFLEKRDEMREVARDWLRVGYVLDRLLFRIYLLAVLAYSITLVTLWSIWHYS
UniProt P36544, 23-229 with tags or gaps L131G/M226I/Q139L/T225I/W171Y limits assumed: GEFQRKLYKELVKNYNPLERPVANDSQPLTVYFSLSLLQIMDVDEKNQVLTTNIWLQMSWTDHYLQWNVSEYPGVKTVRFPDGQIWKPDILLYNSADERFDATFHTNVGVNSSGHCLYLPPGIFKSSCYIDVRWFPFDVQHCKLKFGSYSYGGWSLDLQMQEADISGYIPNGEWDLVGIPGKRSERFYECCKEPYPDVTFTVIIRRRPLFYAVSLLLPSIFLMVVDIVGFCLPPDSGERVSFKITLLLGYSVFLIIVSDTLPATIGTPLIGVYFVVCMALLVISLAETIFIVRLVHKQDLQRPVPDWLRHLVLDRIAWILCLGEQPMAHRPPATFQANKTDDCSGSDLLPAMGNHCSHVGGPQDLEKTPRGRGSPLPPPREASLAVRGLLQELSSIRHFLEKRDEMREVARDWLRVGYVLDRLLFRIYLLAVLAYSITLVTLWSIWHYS
UniProt P36544, 23-229 with tags or gaps L131G/M226I/Q139L/T225I/Y217A limits assumed: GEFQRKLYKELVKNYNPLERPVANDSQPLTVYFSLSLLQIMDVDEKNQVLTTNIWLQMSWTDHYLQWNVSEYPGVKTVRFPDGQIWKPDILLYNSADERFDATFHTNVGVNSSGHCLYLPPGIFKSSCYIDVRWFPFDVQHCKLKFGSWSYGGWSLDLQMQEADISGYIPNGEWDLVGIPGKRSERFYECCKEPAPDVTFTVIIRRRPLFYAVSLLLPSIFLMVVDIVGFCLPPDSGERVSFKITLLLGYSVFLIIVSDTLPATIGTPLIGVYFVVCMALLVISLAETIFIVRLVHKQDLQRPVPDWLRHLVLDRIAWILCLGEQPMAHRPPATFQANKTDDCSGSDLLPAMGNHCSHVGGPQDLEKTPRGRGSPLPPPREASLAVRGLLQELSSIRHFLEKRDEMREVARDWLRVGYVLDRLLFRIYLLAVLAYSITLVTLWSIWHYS
UniProt P36544, 23-229 with tags or gaps L131G/M226I/Q139L/T225I/Y217H limits assumed: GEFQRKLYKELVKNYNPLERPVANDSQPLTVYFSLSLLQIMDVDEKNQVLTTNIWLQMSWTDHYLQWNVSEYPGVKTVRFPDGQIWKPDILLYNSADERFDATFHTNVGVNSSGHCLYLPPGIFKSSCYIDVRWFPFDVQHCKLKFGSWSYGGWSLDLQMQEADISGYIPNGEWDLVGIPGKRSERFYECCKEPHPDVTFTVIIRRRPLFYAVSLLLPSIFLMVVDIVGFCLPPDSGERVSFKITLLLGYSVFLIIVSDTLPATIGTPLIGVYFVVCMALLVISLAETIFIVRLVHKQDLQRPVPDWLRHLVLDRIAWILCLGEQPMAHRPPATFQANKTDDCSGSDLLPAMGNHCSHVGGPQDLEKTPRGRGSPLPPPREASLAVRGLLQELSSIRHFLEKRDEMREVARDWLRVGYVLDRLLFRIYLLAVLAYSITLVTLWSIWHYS
UniProt P36544, 23-229 with tags or gaps L131G/M226I/Q139L/T225I/Y217N limits assumed: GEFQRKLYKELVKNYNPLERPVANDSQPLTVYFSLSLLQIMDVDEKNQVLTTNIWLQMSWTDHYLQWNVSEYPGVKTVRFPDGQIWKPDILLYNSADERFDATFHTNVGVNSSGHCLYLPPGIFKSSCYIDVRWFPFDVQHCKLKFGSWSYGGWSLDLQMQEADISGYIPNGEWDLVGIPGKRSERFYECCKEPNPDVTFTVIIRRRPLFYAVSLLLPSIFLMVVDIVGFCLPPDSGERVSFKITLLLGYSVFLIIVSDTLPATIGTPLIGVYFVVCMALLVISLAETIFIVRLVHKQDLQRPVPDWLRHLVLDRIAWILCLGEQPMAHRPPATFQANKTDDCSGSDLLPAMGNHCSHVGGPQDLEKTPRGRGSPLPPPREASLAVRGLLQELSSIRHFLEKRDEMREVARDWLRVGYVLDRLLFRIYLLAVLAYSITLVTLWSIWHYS
UniProt P36544, 23-229 with tags or gaps L131G/M226I/Q139L/T225I/Y217V limits assumed: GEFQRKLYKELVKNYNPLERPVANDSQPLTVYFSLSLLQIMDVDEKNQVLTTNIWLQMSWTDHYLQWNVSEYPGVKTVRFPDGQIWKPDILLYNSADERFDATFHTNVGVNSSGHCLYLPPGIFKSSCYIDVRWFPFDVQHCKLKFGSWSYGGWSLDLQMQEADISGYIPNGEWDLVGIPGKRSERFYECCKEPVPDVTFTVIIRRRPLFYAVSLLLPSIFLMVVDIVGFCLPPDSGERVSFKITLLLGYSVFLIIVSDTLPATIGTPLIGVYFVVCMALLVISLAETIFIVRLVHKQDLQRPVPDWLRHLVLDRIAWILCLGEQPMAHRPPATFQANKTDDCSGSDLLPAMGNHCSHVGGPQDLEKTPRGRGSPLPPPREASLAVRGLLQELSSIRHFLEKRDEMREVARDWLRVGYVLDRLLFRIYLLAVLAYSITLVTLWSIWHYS
UniProt P36544, 23-229 with tags or gaps H163A/L131G/M226I/Q139L/T225I/Y217F limits assumed: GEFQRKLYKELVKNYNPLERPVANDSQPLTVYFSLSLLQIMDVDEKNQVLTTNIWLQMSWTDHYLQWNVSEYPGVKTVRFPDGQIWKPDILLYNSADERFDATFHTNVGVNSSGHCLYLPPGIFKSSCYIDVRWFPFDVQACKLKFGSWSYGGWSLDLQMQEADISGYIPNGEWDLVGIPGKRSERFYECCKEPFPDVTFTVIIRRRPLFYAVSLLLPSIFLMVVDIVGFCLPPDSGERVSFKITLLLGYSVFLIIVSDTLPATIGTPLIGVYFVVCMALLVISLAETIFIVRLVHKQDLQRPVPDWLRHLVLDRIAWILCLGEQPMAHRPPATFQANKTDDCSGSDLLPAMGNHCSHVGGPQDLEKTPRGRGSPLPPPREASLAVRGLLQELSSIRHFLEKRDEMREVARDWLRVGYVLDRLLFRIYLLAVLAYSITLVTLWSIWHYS
UniProt P36544, 23-229 with tags or gaps H163D/L131G/M226I/Q139L/T225I/Y217F limits assumed: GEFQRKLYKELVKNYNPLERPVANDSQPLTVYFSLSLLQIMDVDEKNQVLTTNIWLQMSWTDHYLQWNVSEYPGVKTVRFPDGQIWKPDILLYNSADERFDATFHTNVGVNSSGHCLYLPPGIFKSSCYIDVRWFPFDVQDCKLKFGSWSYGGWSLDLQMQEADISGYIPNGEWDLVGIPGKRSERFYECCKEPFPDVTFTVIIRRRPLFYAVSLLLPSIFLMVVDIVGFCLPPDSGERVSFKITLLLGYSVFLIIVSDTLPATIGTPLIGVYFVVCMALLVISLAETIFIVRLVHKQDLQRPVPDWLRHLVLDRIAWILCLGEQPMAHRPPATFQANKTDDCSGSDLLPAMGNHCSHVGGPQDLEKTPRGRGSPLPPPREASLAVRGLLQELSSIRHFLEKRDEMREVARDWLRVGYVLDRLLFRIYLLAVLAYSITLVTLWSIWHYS
UniProt P36544, 23-229 with tags or gaps H163F/L131G/M226I/Q139L/T225I/Y217F limits assumed: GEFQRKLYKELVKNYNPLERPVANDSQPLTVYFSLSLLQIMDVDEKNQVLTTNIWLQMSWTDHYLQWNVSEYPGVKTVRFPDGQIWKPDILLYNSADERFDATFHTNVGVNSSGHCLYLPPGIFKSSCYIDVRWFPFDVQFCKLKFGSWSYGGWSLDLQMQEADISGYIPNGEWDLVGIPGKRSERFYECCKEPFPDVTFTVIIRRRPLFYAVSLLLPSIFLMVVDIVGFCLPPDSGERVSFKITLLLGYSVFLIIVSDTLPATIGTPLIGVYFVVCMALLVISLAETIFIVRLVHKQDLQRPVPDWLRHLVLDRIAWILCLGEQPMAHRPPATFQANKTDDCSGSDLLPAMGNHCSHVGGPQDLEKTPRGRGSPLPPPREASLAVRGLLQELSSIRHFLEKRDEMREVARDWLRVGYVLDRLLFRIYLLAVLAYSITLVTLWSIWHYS
UniProt P36544, 23-229 with tags or gaps H163K/L131G/M226I/Q139L/T225I/Y217F limits assumed: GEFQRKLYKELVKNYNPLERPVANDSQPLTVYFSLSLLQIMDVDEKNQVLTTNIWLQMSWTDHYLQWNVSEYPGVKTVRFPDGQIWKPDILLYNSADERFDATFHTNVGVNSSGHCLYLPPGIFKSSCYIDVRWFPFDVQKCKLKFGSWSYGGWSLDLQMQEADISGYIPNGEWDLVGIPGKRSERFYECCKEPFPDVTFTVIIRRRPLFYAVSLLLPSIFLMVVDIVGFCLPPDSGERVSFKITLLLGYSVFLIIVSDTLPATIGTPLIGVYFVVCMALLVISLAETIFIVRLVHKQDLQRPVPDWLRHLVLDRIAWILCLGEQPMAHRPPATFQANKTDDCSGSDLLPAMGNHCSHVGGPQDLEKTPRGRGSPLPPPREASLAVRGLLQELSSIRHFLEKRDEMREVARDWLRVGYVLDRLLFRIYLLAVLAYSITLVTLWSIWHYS
UniProt P36544, 23-229 with tags or gaps H163N/L131G/M226I/Q139L/T225I/Y217F limits assumed: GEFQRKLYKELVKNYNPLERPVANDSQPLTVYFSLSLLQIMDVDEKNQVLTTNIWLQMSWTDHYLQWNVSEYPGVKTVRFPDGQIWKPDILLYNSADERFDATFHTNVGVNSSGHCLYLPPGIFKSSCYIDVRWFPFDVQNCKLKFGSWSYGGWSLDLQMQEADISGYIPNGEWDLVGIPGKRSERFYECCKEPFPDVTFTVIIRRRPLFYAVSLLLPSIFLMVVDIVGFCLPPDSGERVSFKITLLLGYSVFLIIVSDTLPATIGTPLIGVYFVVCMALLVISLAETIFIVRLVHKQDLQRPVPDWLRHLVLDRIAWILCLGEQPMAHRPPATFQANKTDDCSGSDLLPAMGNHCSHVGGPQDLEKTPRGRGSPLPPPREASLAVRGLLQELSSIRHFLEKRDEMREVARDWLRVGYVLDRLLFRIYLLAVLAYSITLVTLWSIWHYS
UniProt P36544, 23-229 with tags or gaps H163R/L131G/M226I/Q139L/T225I/Y217F limits assumed: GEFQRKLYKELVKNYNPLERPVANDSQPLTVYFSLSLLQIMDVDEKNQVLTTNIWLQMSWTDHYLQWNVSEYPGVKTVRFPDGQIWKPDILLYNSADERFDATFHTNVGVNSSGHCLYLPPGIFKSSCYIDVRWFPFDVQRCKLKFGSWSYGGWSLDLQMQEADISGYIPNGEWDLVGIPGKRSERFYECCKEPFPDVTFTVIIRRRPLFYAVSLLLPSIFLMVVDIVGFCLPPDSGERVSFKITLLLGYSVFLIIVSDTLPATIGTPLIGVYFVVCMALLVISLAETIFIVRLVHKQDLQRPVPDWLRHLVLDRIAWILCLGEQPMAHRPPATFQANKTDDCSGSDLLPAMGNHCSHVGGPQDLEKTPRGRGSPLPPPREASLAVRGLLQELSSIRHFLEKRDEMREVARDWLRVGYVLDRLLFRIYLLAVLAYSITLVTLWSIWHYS
UniProt P36544, 23-229 with tags or gaps H163S/L131G/M226I/Q139L/T225I/Y217F limits assumed: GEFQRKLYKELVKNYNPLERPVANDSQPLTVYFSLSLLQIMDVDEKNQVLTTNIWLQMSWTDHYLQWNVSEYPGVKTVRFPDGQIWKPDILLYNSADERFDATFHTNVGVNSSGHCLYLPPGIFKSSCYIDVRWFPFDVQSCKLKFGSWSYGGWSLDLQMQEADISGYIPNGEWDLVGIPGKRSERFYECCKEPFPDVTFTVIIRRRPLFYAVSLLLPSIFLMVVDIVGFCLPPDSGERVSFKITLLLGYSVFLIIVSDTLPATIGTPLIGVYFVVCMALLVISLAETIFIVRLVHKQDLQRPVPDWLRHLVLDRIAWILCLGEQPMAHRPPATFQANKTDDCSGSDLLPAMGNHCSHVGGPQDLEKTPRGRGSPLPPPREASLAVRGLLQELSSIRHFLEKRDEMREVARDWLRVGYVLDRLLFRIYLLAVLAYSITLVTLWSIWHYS

Experiments:
[1] = target: PSAM4-5HT3 (α7-5HT3^L131G,Q139L,Y217F) (Homo sapiens, UniProt P36544, L131G/M226I/Q139L/T225I/Y217F); assay: EC50 dose response of LGIC ligands on PSAM4-5HT3; assay type: cell-based; conditions: read-out: EC50s (SEM) for additional mutations of α7^L131G, Q139L, Y217F -5HT3
[2] = target: α7^L131G,Q139L,Y217F-5HT3 H163A (Homo sapiens, UniProt P36544, H163A/L131G/M226I/Q139L/T225I/Y217F); assay: EC50 dose response, PSAM4-5HT3 with additional mutations; assay type: cell-based; conditions: read-out: EC50s (SEM) for additional mutations of α7^L131G, Q139L, Y217F -5HT3; additional mutation H163A
[3] = target: α7^L131G,Q139L,Y217F-5HT3 H163D (Homo sapiens, UniProt P36544, H163D/L131G/M226I/Q139L/T225I/Y217F); assay: as above; assay type: cell-based; conditions: read-out: EC50s (SEM) for additional mutations of α7^L131G, Q139L, Y217F -5HT3; additional mutation H163D
[4] = target: α7^L131G,Q139L,Y217F-5HT3 H163F (Homo sapiens, UniProt P36544, H163F/L131G/M226I/Q139L/T225I/Y217F); assay: as above; assay type: cell-based; conditions: read-out: EC50s (SEM) for additional mutations of α7^L131G, Q139L, Y217F -5HT3; additional mutation H163F
[5] = target: α7^L131G,Q139L,Y217F-5HT3 H163K (Homo sapiens, UniProt P36544, H163K/L131G/M226I/Q139L/T225I/Y217F); assay: as above; assay type: cell-based; conditions: read-out: EC50s (SEM) for additional mutations of α7^L131G, Q139L, Y217F -5HT3; additional mutation H163K
[6] = target: α7^L131G,Q139L,Y217F-5HT3 H163N (Homo sapiens, UniProt P36544, H163N/L131G/M226I/Q139L/T225I/Y217F); assay: as above; assay type: cell-based; conditions: read-out: EC50s (SEM) for additional mutations of α7^L131G, Q139L, Y217F -5HT3; additional mutation H163N
[7] = target: α7^L131G,Q139L,Y217F-5HT3 H163R (Homo sapiens, UniProt P36544, H163R/L131G/M226I/Q139L/T225I/Y217F); assay: as above; assay type: cell-based; conditions: read-out: EC50s (SEM) for additional mutations of α7^L131G, Q139L, Y217F -5HT3; additional mutation H163R
[8] = target: α7^L131G,Q139L,Y217F-5HT3 H163S (Homo sapiens, UniProt P36544, H163S/L131G/M226I/Q139L/T225I/Y217F); assay: as above; assay type: cell-based; conditions: read-out: EC50s (SEM) for additional mutations of α7^L131G, Q139L, Y217F -5HT3; additional mutation H163S
[9] = target: α7^L131G,Q139L,Y217F-5HT3 H163T (Homo sapiens, UniProt P36544, H163T/L131G/M226I/Q139L/T225I/Y217F); assay: as above; assay type: cell-based; conditions: read-out: EC50s (SEM) for additional mutations of α7^L131G, Q139L, Y217F -5HT3; additional mutation H163T
[10] = target: α7^L131G,Q139L,Y217F-5HT3 H163T, S172A (Homo sapiens, UniProt P36544, H163T/L131G/M226I/Q139L/S172A/T225I/Y217F); assay: as above; assay type: cell-based; conditions: read-out: EC50s (SEM) for additional mutations of α7^L131G, Q139L, Y217F -5HT3
[11] = target: α7^L131G,Q139L,Y217F-5HT3 H163T, S172V (Homo sapiens, UniProt P36544, H163T/L131G/M226I/Q139L/S172V/T225I/Y217F); assay: as above; assay type: cell-based; conditions: read-out: EC50s (SEM) for additional mutations of α7^L131G, Q139L, Y217F -5HT3
[12] = target: α7^L131G,Q139L,Y217F-5HT3 H163V (Homo sapiens, UniProt P36544, H163V/L131G/M226I/Q139L/T225I/Y217F); assay: as above; assay type: cell-based; conditions: read-out: EC50s (SEM) for additional mutations of α7^L131G, Q139L, Y217F -5HT3; additional mutation H163V
[13] = target: α7^L131G,Q139L,Y217F-5HT3 S172A (Homo sapiens, UniProt P36544, L131G/M226I/Q139L/S172A/T225I/Y217F); assay: as above; assay type: cell-based; conditions: read-out: EC50s (SEM) for additional mutations of α7^L131G, Q139L, Y217F -5HT3; additional mutation S172A
[14] = target: α7^L131G,Q139L,Y217F-5HT3 S172I (Homo sapiens, UniProt P36544, L131G/M226I/Q139L/S172I/T225I/Y217F); assay: as above; assay type: cell-based; conditions: read-out: EC50s (SEM) for additional mutations of α7^L131G, Q139L, Y217F -5HT3; additional mutation S172I
[15] = target: α7^L131G,Q139L,Y217F-5HT3 S172V (Homo sapiens, UniProt P36544, L131G/M226I/Q139L/S172V/T225I/Y217F); assay: as above; assay type: cell-based; conditions: read-out: EC50s (SEM) for additional mutations of α7^L131G, Q139L, Y217F -5HT3; additional mutation S172V
[16] = target: α7^L131G,Q139L,Y217F-5HT3 V154I, R155Y, W156N (Homo sapiens, UniProt P36544, L131G/M226I/Q139L/R155Y/T225I/V154I/W156N/Y217F); assay: as above; assay type: cell-based; conditions: read-out: EC50s (SEM) for additional mutations of α7^L131G, Q139L, Y217F -5HT3
[17] = target: α7^L131G,Q139L,Y217F-5HT3 V154I, R155Y, W156N, S172A (Homo sapiens, UniProt P36544, L131G/M226I/Q139L/R155Y/S172A/T225I/V154I/W156N/Y217F); assay: as above; assay type: cell-based; conditions: read-out: EC50s (SEM) for additional mutations of α7^L131G, Q139L, Y217F -5HT3
[18] = target: α7^L131G,Q139L,Y217F-5HT3 V154I, R155Y, W156N, S172V (Homo sapiens, UniProt P36544, L131G/M226I/Q139L/R155Y/S172V/T225I/V154I/W156N/Y217F); assay: as above; assay type: cell-based; conditions: read-out: EC50s (SEM) for additional mutations of α7^L131G, Q139L, Y217F -5HT3
[19] = target: α7^L131G,Q139L,Y217F-5HT3 V154L, R155Y, W156Q (Homo sapiens, UniProt P36544, L131G/M226I/Q139L/R155Y/T225I/V154L/W156Q/Y217F); assay: as above; assay type: cell-based; conditions: read-out: EC50s (SEM) for additional mutations of α7^L131G, Q139L, Y217F -5HT3
[20] = target: α7^L131G,Q139L,Y217F-5HT3 W156N, H163T (Homo sapiens, UniProt P36544, H163T/L131G/M226I/Q139L/T225I/W156N/Y217F); assay: as above; assay type: cell-based; conditions: read-out: EC50s (SEM) for additional mutations of α7^L131G, Q139L, Y217F -5HT3
[21] = target: α7-5HT3 L131G, Q139L, W171F (Homo sapiens, UniProt P36544, L131G/M226I/Q139L/T225I/W171F); assay: EC50 dose response, α7-5HT3 mutant; assay type: cell-based; conditions: read-out: EC50s (SEM) for additional mutations of α7^L131G, Q139L, Y217F -5HT3
[22] = target: α7-5HT3 L131G, Q139L, W171Y (Homo sapiens, UniProt P36544, L131G/M226I/Q139L/T225I/W171Y); assay: EC50 dose response, α7-5HT3 mutant; assay type: cell-based; conditions: read-out: EC50s (SEM) for additional mutations of α7^L131G, Q139L, Y217F -5HT3
[23] = target: α7-5HT3 L131G, Q139L, Y217A (Homo sapiens, UniProt P36544, L131G/M226I/Q139L/T225I/Y217A); assay: EC50 dose response, α7-5HT3 mutant; assay type: cell-based; conditions: read-out: EC50s (SEM) for additional mutations of α7^L131G, Q139L, Y217F -5HT3
[24] = target: α7-5HT3 L131G, Q139L, Y217H (Homo sapiens, UniProt P36544, L131G/M226I/Q139L/T225I/Y217H); assay: EC50 dose response, α7-5HT3 mutant; assay type: cell-based; conditions: read-out: EC50s (SEM) for additional mutations of α7^L131G, Q139L, Y217F -5HT3
[25] = target: α7-5HT3 L131G, Q139L, Y217N (Homo sapiens, UniProt P36544, L131G/M226I/Q139L/T225I/Y217N); assay: EC50 dose response, α7-5HT3 mutant; assay type: cell-based; conditions: read-out: EC50s (SEM) for additional mutations of α7^L131G, Q139L, Y217F -5HT3
[26] = target: α7-5HT3 L131G, Q139L, Y217V (Homo sapiens, UniProt P36544, L131G/M226I/Q139L/T225I/Y217V); assay: EC50 dose response, α7-5HT3 mutant; assay type: cell-based; conditions: read-out: EC50s (SEM) for additional mutations of α7^L131G, Q139L, Y217F -5HT3
[27] = target: α7^L131G,Q139L,Y217F-5HT3 W156N (Homo sapiens, UniProt P36544, L131G/M226I/Q139L/T225I/W156N/Y217F); conditions: read-out: EC50s (SEM) for additional mutations of α7^L131G, Q139L, Y217F -5HT3; additional mutation W156N

Molecule `Cn1c(=O)cnc2cc3c(cc21)C1CNCC3C1` (stereo not shown) has an EC50 ([1]; PSAM4-5HT3 (no additional mutation)) of 3.9 nM, an EC50 ([1]; line L131G, Q139L, Y217F (same values as PSAM4-5HT3 line)) of 3.9 nM and an EC50 [2] of 5.1 nM. For the same molecule, the EC50 [3] was 12 nM, the EC50 [4] was 9.8 nM and the EC50 [5] was 8.6 nM. It also gave an EC50 [6] of 6.3 nM, an EC50 [7] of 7.2 nM and an EC50 [8] of 8.6 nM. It also gave an EC50 [9] of 12 nM, an EC50 [10] of 11 nM and an EC50 [11] of 5.4 nM. For the same molecule, the EC50 [12] was 7.2 nM, the EC50 [13] was 6.4 nM and the EC50 [14] was 12 nM. For the same molecule, the EC50 [15] was 4.3 nM, the EC50 [16] was 8.5 nM and the EC50 [17] was 15 nM. The EC50 [18] was 25 nM, the EC50 [19] was 12.6 nM and the EC50 [20] was 13 nM. The EC50 [21] was > 100 nM, the EC50 [22] was > 100 nM and the EC50 [23] was 22 nM. The EC50 [24] was 12.2 nM, the EC50 [25] was > 100 nM and the EC50 [26] was > 100 nM. It also gave an EC50 [27] of 11 nM.
